{"source": "paper PMC3179684", "about": "(Toxicological Sciences, 2011)", "key": {"GSH levels in the livers": {"tested_on": "GSH levels in the livers", "settings": "B6C3F1 mice exposed for 4 h to 300 and 400 ppm EO; ref Brown et al., 1998; cited from earlier work"}, "epoxide hydrolase (EH)": {"molecular_target": "T1, epoxide hydrolase (EH) (Homo sapiens, UniProt P07099)", "T1 sequence (P07099 1-455)": "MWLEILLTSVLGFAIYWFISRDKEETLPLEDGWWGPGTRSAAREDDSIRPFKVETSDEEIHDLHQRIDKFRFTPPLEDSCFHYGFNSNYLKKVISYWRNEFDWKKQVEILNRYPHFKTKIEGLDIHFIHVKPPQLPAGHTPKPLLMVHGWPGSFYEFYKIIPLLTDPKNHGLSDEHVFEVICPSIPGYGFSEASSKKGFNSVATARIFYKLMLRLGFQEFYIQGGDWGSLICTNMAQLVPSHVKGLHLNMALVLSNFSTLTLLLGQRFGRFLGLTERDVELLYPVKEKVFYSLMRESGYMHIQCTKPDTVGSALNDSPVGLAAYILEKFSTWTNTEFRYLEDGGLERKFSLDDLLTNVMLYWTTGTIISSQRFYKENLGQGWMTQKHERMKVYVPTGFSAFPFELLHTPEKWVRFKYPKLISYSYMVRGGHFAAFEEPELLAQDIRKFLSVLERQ", "assay": "EO elimination in human liver microsomes", "settings": "pooled native human liver microsomes"}}, "data": [{"smiles": "C1CO1", "note": "[EO, ethylene oxide]", "values": [{"measurement": "GSH levels in the livers", "setting": "GSH levels in the livers", "result": "less than 22 % of the control value"}, {"measurement": "ratio of Vmax to Km of EH-catalyzed EO elimination", "setting": "epoxide hydrolase (EH)", "result": 1.13, "unit": "μl/min/mg protein"}]}]}
